The text below walks through data of patent publication US10077273B2, “SHMT inhibitors” (The Trustees of Princeton University, priority 2016, dated 2018).

The chains behind the UniProt entries cited, without tags or fusion partners. Residues count along the entry.
UniProt P34897, 30-504 limits assumed: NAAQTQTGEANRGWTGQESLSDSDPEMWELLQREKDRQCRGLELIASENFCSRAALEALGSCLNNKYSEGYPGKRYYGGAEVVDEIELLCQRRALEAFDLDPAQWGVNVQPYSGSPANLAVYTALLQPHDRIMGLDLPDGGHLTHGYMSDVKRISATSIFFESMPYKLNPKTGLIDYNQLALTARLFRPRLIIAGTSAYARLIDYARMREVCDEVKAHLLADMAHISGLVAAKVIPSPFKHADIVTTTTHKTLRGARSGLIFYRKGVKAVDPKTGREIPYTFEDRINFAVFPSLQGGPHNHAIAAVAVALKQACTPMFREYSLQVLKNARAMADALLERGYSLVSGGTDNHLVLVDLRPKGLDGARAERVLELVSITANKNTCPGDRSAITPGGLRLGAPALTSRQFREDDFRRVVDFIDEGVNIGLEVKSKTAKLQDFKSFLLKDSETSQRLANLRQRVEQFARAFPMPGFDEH
UniProt P34896, 2-483 limits assumed: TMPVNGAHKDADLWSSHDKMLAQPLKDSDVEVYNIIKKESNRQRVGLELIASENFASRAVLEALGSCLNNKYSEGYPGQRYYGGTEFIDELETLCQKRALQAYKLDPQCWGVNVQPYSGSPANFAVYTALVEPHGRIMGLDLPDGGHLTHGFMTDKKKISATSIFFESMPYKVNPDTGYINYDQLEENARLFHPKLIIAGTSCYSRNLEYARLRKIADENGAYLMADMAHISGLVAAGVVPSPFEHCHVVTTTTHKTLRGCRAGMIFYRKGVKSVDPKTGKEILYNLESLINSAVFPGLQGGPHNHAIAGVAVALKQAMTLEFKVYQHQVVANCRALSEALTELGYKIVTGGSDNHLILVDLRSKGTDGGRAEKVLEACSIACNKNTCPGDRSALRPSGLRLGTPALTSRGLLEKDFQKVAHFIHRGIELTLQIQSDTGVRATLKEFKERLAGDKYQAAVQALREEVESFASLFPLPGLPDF

For test [1], the target named is human SHMT2 (Homo sapiens, UniProt P34897).
The target of test [2] is human SHMT1 (Homo sapiens, UniProt P34896). Particulars: read-out: SHMT1 IC50.

Like-named read-outs stand apart in the source and are kept apart here.

For `Cc1n[nH]c2c1C(c1cc(C#CCCCO)cc(C(F)(F)F)c1)(C(C)C)C(C#N)=C(N)O2` (stereo not drawn) [1 (enantiomeric ally active peak)], the IC50 in test [1] (read-out: SCHMT2 IC50) came to 0.79 nM.
`Cc1n[nH]c2c1C(c1cc(C#CCCCO)cc(C(F)(F)F)c1)(C(C)C)C(C#N)=C(N)O2` (stereo not drawn) [Compound 1]: the IC50 in test [1] (read-out: SCHMT2 IC50) was 0.65 nM.
For the molecule `Cc1n[nH]c2c1C(c1cc(C#CCCCN)cc(C(F)(F)F)c1)(C(C)C)C(C#N)=C(N)O2` (stereo not drawn) [Compound 8], the IC50 in test [2] was found to be 8 nM; in test [1] (read-out: SCHMT2 IC50), 43 nM.
Consider `Cc1n[nH]c2c1C(c1cc(C#CCCC(N)=O)cc(C(F)(F)F)c1)(C(C)C)C(C#N)=C(N)O2` (stereo not drawn) [Compound 11], for which the IC50 stood at 0.4 nM in test [2] and 1.4 nM in test [1] (read-out: SCHMT2 IC50).
In the case of `Cc1n[nH]c2c1C(c1cc(C#CCCCO)cc(C(F)(F)F)c1)(C(C)C)C(C#N)=C(N)O2` (stereo not drawn) [Compound 61, 6-amino-4-(3-(5-hydroxypent-1-yn-1-yl)-5-(trifluoromethyl)phenyl)-4-isopropyl-3-methyl-1,4-dihydropyrano[2,3-c]pyrazole-5-carbonitrile], the concentration for half-maximal inhibition (IC50) in test [1] (read-out: SHMT2 IC50) came out at 0.78 nM.
In the case of `Cc1n[nH]c2c1C(c1cc(C#N)cc(C#CCCC(=O)O)c1)(C(C)C)C(C#N)=C(N)O2` (stereo not drawn) [Compound 68], the results for the half-inhibitory concentration (IC50) in test [2] and in test [1] (read-out: SCHMT2 IC50) were 1.7 nM and 0.4 nM, respectively.
In the case of `Cc1n[nH]c2c1C(c1cc(C#CCCC(=O)N[C@@H](CCC(=O)O)C(=O)O)cc(C(F)(F)F)c1)(C(C)C)C(C#N)=C(N)O2` (stereo partly drawn) [Compound 69], the IC50 in test [1] (read-out: SCHMT2 IC50) turned out to be 0.8 nM.
Still for that read-out and setting: to `Cc1n[nH]c2c1C(c1cc(C#CCCC(=O)N[C@H](CCC(=O)O)C(=O)O)cc(C(F)(F)F)c1)(C(C)C)C(C#N)=C(N)O2` (stereo partly drawn) [Compound 70] belongs 1 nM.
As to `Cc1n[nH]c2c1C(c1cc(C#CCCC(=O)NC(C)(C)C(=O)O)cc(C(F)(F)F)c1)(C(C)C)C(C#N)=C(N)O2` (stereo not drawn) [Compound 72], the 50% inhibitory concentration (IC50) in test [2] stood at 4 nM; in test [1] (read-out: SCHMT2 IC50), 2 nM.
For `COC(=O)CCC#Cc1cc(C(F)(F)F)cc(C2(C(C)C)C(C#N)=C(N)Oc3[nH]nc(C)c32)c1` (stereo not drawn) [Compound 73], the IC50 in test [1] (read-out: SCHMT2 IC50) is 7.5 nM.
`Cc1n[nH]c2c1C(c1cc(C#CCCCO)cc(CO)c1)(C(C)C)C(C#N)=C(N)O2` (stereo not drawn) [Compound 74]: the half-inhibitory concentration (IC50) in test [2] stood at 17 nM; in test [1] (read-out: SCHMT2 IC50), 19 nM.
In the case of `Cc1n[nH]c2c1C(c1cc(Br)cc(C(F)(F)F)c1)(C(C)C)C(C#N)=C(N)O2` (stereo not drawn) [Compound a, 6-amino-4-(3-bromo-5-(trifluoromethyl)phenyl)-4-isopropyl-3-methyl-1,4-dihydropyrano[2,3-c]pyrazole-5-carbonitrile], the IC50 in test [1] (read-out: SHMT2 IC50) worked out at 42 nM.
Turning to `Cc1n[nH]c2c1[C@@](c1cccc(C(F)(F)F)c1)(C1CCC1)C(C#N)=C(N)O2` [HK-1], in test [1] (read-out: SHMT2 IC50, Table 3), the half-inhibitory concentration (IC50) is > 5000 nM.
